Results published in patent US11306156 (dated 2022).

The chains behind the UniProt entries cited, without tags or fusion partners. Residues count along the entry.
UniProt P13726, 33-251 limits assumed: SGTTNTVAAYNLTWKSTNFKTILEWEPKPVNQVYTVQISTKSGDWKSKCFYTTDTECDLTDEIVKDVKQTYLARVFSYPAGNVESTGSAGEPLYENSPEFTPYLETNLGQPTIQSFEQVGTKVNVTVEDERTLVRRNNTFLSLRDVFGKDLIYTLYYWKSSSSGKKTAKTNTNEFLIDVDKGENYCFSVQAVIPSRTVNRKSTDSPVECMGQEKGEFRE

Assays:
[1] = target: T1, tissue factor (TF) antigen (human, UniProt P13726 33-251, limits assumed); experiment: SPR; Fab captured by anti-His, TF as analyte; LCCA set 9828
T1 construct: The construct of the antigen is not described

[2] = target: T2, tissue factor (TF) antigen (human, UniProt P13726 33-251, limits assumed); experiment: SPR, Fab captured on anti-penta His surface, TF as analyte, 1:1 fit
T2 construct: The construct of TF used in the SPR assay is not described

| Kd [1] [nM] | Kd [2] [nM] | change in KD with respect to wild type, -(log(KD_design) - log(KD_wt)) [2] | Binder |
| --- | --- | --- | --- |
| 0.14 |  |  | D3H44 Fab heterodimer, H Q39R_S186R / L Q38E_Q124E_Q160E_T180E (H1L1 Fab of LCCA set 9828) (Fab, V domains shown) VH: EVQLVESGGGLVQPGGSLRLSCAASGFNIKEYYMHWVRRAPGKGLEWVGLIDPEQGNTIYDPKFQDRATISADNSKNTAYLQMNSLRAEDTAVYYCARDTAAYFDYWGQGTLVTVSS VL: DIQMTQSPSSLSASVGDRVTITCRASRDIKSYLNWYQEKPGKAPKVLIYYATSLAEGVPSRFSGSGSGTDYTLTISSLQPEDFATYYCLQHGESPWTFGQGTKVEIKR |
|  | 0.07 | 0.38 | D3H44 Fab heterodimer, H1L1 of LCCA Set # 9821 (H1 Q39R_D146G_H172R_Q179K; L1 Q38E_Q124E_Q160E_T180E) (Fab, V domains shown) VH: EVQLVESGGGLVQPGGSLRLSCAASGFNIKEYYMHWVRRAPGKGLEWVGLIDPEQGNTIYDPKFQDRATISADNSKNTAYLQMNSLRAEDTAVYYCARDTAAYFDYWGQGTLVTVSS VL: DIQMTQSPSSLSASVGDRVTITCRASRDIKSYLNWYQEKPGKAPKVLIYYATSLAEGVPSRFSGSGSGTDYTLTISSLQPEDFATYYCLQHGESPWTFGQGTKVEIKR |
|  | 0.17 | -0.03 | D3H44 Fab heterodimer, H1L1 of LCCA Set # 9827 (H1 Q39R_Q179K; L1 Q38E_Q124E_Q160E_T180E) (Fab, V domains shown) VH: EVQLVESGGGLVQPGGSLRLSCAASGFNIKEYYMHWVRRAPGKGLEWVGLIDPEQGNTIYDPKFQDRATISADNSKNTAYLQMNSLRAEDTAVYYCARDTAAYFDYWGQGTLVTVSS VL: DIQMTQSPSSLSASVGDRVTITCRASRDIKSYLNWYQEKPGKAPKVLIYYATSLAEGVPSRFSGSGSGTDYTLTISSLQPEDFATYYCLQHGESPWTFGQGTKVEIKR |
